Data as given in PubChem BioAssay AID652025 (National Center for Advancing Translational Sciences (NCATS), 2013).
The entries are a selection whose mix differs from that of the whole data set. Some tests of the compounds listed are not included; inactive here does not mean inactive elsewhere. Calls of active or inactive are those of the source. Cut-off read from the data, not from the text of the source: active = activation above about 50%; inconclusive = mostly about 30% to 49%; inactive = weaker than that.

Test: qHTS of IL-2 Activators; note: 0% is about no effect
Conditions: IL-2 activation reporter assay, cell-based qHTS; hits give high values; in transgenic mouse T cells; stimulated with anti-CD3/CD4/CD28 beads
From the text: The adaptive immune response against any infectious agent begins with the activation of an antigen specific T cell. This relatively rare and inert ("naive") T cell undergoes a massive proliferative expansion and differentiation process to generate sufficient number of potent pathogen-specific effector T cells. The effector T cells fight the infection by making cytokines and helping other cells to become fully armed as well. If any naive T cell has antigen receptors (TCRs) that can be activated by self peptides, then a variety of regulatory mechanisms kick in to prevent this cell from performing to its full potential. These processes collectively constitute the phenomenon of immunological tolerance and their failure leads to autoimmunity. One arm of tolerance involves generation of biochemical negative feedback downstream of the TCR (tuning). This is especially relevant to self antigens present in the body over long periods of time (chronic), which form the bulk of our proteome. The negative feedback serves to tune the TCR signaling, such that the ambient antigenic stimulation is nullified intracellularly. Unfortunately, this critical machinery serves as a target for chronic viral, bacterial and parasitic infections (as well as tumors), which can evade a robust immune response, simply by allowing T cells to tune down their signaling to pathogen or malignancy derived antigens. As such, disrupting the tuning in such cases would allow the tolerant T cell to function again and deliver a robust effector response.
If a therapeutic can restore responsiveness to the tuned down T cell, even for a short time, they could combat the pathogen without any additional immunization. To that end, we have developed a sensitive HTS T cell based assay based on IL-2. This assay will be screened against the Molecular Libraries Small Molecule Repository (MLSMR) to find small molecules that could elicit this response.
NIH Chemical Genomics Center [NCGC]
NIH Molecular Libraries Probe Centers Network [MLPCN]
Assay Submitter (PI): Ron Schwartz, NIAID
4 microL (750 cells/well) of unstimulated transgenic mouse T cells (columns 1-3,5-48) are dispensed into Aurora LoBase, black clear-bottom 1536-well assay plates; column 4 receives an identical concentration of transgenic memory T cells as a non-tolerant control. Compounds are then transferred via Kalypsys pin tool equipped with 1536-pin array (10 nL slotted pins, V&P Scientific, San Diego, CA). Following addition of compound and a 60 minute incubation, 1 microL of bead stimulation solution ((0.04 micron Fluospheres (Life technologies, CA) coated with 10ug/ml each anti-CD3 and anti-CD4 (clones 2C11 and GK1.5, BD Biosciences, CA) and mixed with 1ug/ml anti-CD28 (clone PV-1, BD biosciences, CA)). columns 2-48) is added to stimulate the IL-2 response pathway; media is instead added to column 1 as an unstimulated control, while PMA/ionomycin (Sigma Aldrich, MO) is added to column 3 as a control for IL-2 tolerance bypass. The plates are then incubated at 37 degrees C for 18 hours. EGFP and DsRed signal are then detected using an Acumen eX3 Explorer fluorescent plate cytometer. All cells are dispensed in cell media containing EHAA (Quality Biologicals, MD), RPMI (Quality Biologicals, MD), Glutamine (Life Technologies, CA), Penicillin/Streptomycin (Quality Biologicals, MD), 2-ME (Sigma Aldrich, MO) and 10% FBS (Gemini Bioproducts, CA) .

| Structure (SMILES) | activation |
| --- | --- |
| Cc1ccc(C(=O)NCC2(N3CCCCC3)CCCCC2)cc1 | inactive: 2.66% |
| CCN(CC)CC(C)C(C)OC(=O)C(O)(c1ccccc1)c1ccccc1 (stereo unspecified) | inactive: 1.14% |
| COc1cc(SC)ccc1C(=O)NCC1(N(C)C)CCCCC1 | inactive: -0.688% |
| CC(C)N1C(=O)CC2(CCN(CCOC(=O)C(O)(c3ccccc3)c3ccccc3)CC2)C1=O | inactive: -0.478% |
| CN1[C@@H]2CC[C@H]1CC(OC(=O)C(O)(c1ccccc1)c1ccccc1)C2 (stereo partly specified) | inactive: 1.14% |
| O=C(NCC1(N2CCCCC2)CCCCC1)c1cc([N+](=O)[O-])ccc1Cl | inactive: 0.967% |
| COc1ccc(C(=O)NCC2(N(C)C)CCCCC2)cc1 | inactive: -2.81% |
| Cc1cc(C(=O)NCC2(N3CCCCC3)CCCCC2)ccc1[N+](=O)[O-] | inactive: 1.12% |
| CCN1CCCC(OC(=O)C2(O)c3ccccc3C=Cc3ccccc32)C1 (stereo unspecified) | inactive: -0.57% |
| O=C(NCC1(N2CCCCC2)CCCCC1)c1cccc(Br)c1 | inactive: 1.68% |
| C=CCN1CCN(CCOC(=O)C(O)(c2ccccc2)c2ccccc2)CC1 | inactive: -1.27% |
| O=C(NCC1(N2CCCCC2)CCCCC1)c1cc(F)c(F)cc1Cl | inactive: 3.3% |
| Cc1ccccc1C(=O)NCC1(N2CCCCC2)CCCCC1 | inactive: -1.48% |
| CN(C)C1CCCC1OC(=O)C(O)(c1ccccc1)c1ccccc1 (stereo unspecified) | inactive: 3.78% |
| CN(C)c1ccc(C(=O)NCC2(N(C)C)CCCCC2)cc1 | inactive: 0.822% |
| O=C(NCC1(N2CCCCC2)CCCCC1)c1cccc(Cl)c1 | inactive: -0.198% |
| COc1cccc(C(=O)NCC2(N3CCCCC3)CCCCC2)c1 | inactive: 2.44% |
| COc1ccc(Cl)cc1C(=O)NCC1(N(C)C)CCCCC1 | inactive: -3.04% |
| COc1cc(C(=O)NCC2(N(C)C)CCCCC2)c([N+](=O)[O-])cc1OC | inactive: 0.526% |
| CN(C)C1(CNC(=O)c2ccc(Br)cc2)CCCCC1 | inactive: -0.31% |
| CC(C)Oc1ccc(C(=O)NCC2(N(C)C)CCCCC2)cc1 | inactive: 2.14% |
| O=C(OCCN1CCCC1)C(O)(c1ccccc1)c1ccccc1 | inactive: 1.08% |
| CN(C)c1cccc(C(=O)NCC2(N(C)C)CCCCC2)c1 | inactive: 0.167% |
| C=C(C)C#CC(O)(C(=O)OC1CCN(C)CC1)c1ccccc1 (stereo unspecified) | inactive: -3.86% |
| COc1ccc(Br)c(C(=O)NCC2(N3CCCCC3)CCCCC2)c1 | inactive: 1.16% |
| O=C(OC1CN2CCC1CC2)C(CO)(c1ccccc1)c1ccccc1 (stereo unspecified) | inactive: 0.777% |
